Read-outs that look alike come from different tables or passages of the source.
Experiments:
[1] = Amount of salts delivered in the pyruvate formulations compared to amounts in human blood; settings: amount delivered in the pyruvate formulation
[2] = test system: skin laser wounds in patients; settings: human, in vivo
[3] = test system: skin laser wounds in patients; assay: Salts of pyruvate and SRF on skin laser wounds in patients: healing and irritation

delivered salt lower than blood levels [1] [times lower]	Substance	irritation or toxicity [2]	irritation or toxicity [3]	delivered salt relative to blood levels [1]
1.5	Calcium pyruvate			
	Magnesium pyruvate	irritating and possibly toxic		
	aluminum pyruvate		irritating and possibly toxic	6100 × blood levels
	manganese pyruvate		irritating and possibly toxic	3,700 × blood levels

Source: patent publication US11458114B2, “Methods and compositions for enhancing synthesis secretion and transport of collagen to increase wound strength” (NORTH CELL PHARMACEUTICALS, INC., priority 2020, dated 2022)
